One experiment relates to PECAM-1. Description: PECAM-1 protein expression by Western immunoblot in HUVECs. The settings on record: CC 5.0 μM; GÖ 6850 and 6976 50 nM; BPB 10 μM; MAFP 3.0 μM; compared with vehicle (DMSO).
For a further experiment, the system named is HUVECs. Description: In vitro angiogenesis/tube formation assay in HUVECs. The note with it: CC 5.0 μM; GÖ 6850 and 6976 50 nM; BPB 10 μM; MAFP 3.0 μM; compared with vehicle (DMSO).

The results in this text go back to patent US20090202439A1, “Methods for treatment of angiogenesis” (The Johns Hopkins University, priority 2004, published 2009).

With methyl-arachidonyl fluorophosphonate, the “VEGF/LacCer induced PECAM-1 expression” value in the experiment on PECAM-1 is “abrogated”. Also, the “VEGF/LacCer induced tube formation” value with HUVECs was “abrogated”.
